# Where two headings read alike, the source gives them in different places.
# Amino acid sequences for entries named in this document (tags omitted).
# UniProt O00763, whole entry: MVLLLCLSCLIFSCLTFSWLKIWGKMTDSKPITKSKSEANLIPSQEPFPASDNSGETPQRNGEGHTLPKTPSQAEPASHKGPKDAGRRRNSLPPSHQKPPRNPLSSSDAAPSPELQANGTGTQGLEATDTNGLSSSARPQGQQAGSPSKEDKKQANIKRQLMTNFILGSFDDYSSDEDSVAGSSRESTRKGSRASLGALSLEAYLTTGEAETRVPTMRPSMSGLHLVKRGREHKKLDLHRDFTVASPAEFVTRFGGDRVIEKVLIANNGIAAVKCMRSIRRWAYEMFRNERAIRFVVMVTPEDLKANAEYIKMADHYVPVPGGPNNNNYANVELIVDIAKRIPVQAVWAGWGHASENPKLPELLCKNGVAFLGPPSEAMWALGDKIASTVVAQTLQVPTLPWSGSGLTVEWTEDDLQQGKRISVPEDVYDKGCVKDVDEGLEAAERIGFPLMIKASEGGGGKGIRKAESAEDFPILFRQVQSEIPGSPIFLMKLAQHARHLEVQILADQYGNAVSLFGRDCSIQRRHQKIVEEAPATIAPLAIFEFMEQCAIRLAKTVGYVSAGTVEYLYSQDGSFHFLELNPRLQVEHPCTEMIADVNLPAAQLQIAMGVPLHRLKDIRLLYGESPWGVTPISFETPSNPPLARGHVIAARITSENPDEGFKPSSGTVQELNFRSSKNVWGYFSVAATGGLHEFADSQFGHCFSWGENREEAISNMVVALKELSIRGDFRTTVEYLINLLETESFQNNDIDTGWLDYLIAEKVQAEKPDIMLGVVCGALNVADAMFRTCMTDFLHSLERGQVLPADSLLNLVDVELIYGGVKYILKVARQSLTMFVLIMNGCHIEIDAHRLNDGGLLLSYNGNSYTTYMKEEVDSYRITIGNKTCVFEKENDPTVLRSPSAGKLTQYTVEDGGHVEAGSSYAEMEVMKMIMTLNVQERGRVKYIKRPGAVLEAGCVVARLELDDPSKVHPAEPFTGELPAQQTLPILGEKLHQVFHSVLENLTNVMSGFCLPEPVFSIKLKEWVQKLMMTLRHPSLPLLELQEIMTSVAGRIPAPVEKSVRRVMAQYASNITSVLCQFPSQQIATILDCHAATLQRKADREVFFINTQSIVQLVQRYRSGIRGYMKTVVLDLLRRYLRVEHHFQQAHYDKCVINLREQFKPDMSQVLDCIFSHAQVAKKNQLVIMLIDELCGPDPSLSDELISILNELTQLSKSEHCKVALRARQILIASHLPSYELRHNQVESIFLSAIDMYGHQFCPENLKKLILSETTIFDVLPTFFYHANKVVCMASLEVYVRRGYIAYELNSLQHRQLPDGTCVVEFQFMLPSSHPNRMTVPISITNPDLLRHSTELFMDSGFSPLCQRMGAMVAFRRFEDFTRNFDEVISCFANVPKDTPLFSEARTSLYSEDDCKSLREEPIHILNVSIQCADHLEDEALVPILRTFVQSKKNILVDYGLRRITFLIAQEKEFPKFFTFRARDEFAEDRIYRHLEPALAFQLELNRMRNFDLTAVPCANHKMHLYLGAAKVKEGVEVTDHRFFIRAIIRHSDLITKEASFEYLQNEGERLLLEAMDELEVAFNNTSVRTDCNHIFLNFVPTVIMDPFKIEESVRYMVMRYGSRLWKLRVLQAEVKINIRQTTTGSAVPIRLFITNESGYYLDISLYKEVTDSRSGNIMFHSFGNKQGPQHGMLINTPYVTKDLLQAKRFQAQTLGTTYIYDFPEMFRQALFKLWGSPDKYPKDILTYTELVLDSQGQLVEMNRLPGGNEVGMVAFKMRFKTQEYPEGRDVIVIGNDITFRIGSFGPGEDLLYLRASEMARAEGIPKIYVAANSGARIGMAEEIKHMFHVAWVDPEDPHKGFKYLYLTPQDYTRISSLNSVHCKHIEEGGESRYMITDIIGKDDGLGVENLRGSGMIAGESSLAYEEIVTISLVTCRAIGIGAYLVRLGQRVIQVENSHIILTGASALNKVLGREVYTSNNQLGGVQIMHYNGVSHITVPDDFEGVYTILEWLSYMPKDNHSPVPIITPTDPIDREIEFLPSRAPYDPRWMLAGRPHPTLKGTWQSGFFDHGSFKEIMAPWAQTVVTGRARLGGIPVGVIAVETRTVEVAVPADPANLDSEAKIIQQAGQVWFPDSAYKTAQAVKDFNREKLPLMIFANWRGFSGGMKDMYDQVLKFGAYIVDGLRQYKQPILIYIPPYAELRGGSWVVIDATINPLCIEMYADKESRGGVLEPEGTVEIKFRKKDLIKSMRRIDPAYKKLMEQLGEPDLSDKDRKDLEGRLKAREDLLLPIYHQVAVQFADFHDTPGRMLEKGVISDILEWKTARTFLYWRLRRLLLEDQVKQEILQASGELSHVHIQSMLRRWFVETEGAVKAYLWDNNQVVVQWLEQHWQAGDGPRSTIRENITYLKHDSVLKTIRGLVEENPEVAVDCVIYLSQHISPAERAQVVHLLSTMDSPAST
# Target: human (hACC2) (Homo sapiens, UniProt O00763)
# Assay: In vitro ACC inhibition assay (ADP-Glo), hACC2
# Assay type: biochemical
# Description: The detailed procedure is as follows. […] 10 μL ADP glo reagent was added. […] 20 μL kinase detection reagent was added.
structure (smiles),measurement,setting,value
COc1ccc(F)cc1[C@@H](Cn1c(=O)n([C@@H](C)C(=O)N(C)C(C)C)c(=O)c2c(C)c(-n3nccn3)sc21)OCCO,IC50,"read-out: hACC2 (in vitro ACC2 Inhibition Assay, IC50), Table 2a, 5 nM ACC2, 20 μM ATP, 20 μM acetyl-CoA",> 40 nM
same,IC50,"read-out: hACC2 (in vitro ACC2 Inhibition Assay, IC50), Table 2b, additional results, 5 nM ACC2, 20 μM ATP, 20 μM acetyl-CoA",> 40 nM

# Source: patent US10800791B2, “Triazole ACC inhibitors and uses thereof” (Gilead Apollo, LLC, priority 2015, dated 2020)
